Experiment: in vitro
Settings: PAMPA, PAMPA-BBB Pe(10^-6 cm/sec)

COc1cc([C@@H]2c3cc4c(cc3[C@@H](O)[C@H]3COC(=O)[C@H]23)OCO4)cc(OC)c1O
Papp: 9.1 ×10⁻⁶ cm/s

Reference: PMC11876671, “Investigating blood–brain barrier penetration and neurotoxicity of natural products for central nervous system drug development” (Scientific Reports, 2025)
